Measured affinities in a library of Ab-14 heavy chain variants

The target is the same throughout: PDVDLGDISGINAS, from the HR2 region of SARS-CoV-2 spike.

Ab-14 is the parent antibody, in scFv form: VH, then the linker GGGGSGGGGSGGGGS, then VL. The light chain is unchanged in all variants.
VH: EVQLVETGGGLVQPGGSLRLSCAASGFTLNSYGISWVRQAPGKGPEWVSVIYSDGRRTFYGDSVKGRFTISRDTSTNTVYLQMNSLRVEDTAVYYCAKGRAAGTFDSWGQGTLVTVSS
VL: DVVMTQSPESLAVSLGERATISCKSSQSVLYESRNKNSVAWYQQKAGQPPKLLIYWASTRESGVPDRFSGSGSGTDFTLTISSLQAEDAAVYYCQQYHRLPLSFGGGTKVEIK

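The starting antibody came from a phage panning campaign against this peptide. Variants in AAYL49 differ from the parent at up to three CDR positions; double and triple changes were sampled at random. The assay is AlphaSeq: two haploid yeast populations carry antibody and antigen on their surface. Pairs that bind mate more often; barcode pairs of the diploids are counted by sequencing. Each replicate has its own calibration line, from reference interactions of the BCL2 family. Each pool was mated in three replicate cultures.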

The parent's heavy chain CDRs are GFTLNSYGIS, VIYSDGRRTFYGDSVK, GRAAGTFDS; each variant's own CDRs replace them letter for letter.
Affinities are written as log10 Kd with Kd in nM; a lower number is a better binder.
An entry "ND" has no value in the source: the pair was not observed among the diploids in that replicate. This suggests poor binding but is not conclusive.
Background: pairings of library AAYL49 with three empty control strains gave a value in 15% of cases (median 4.06, 5th percentile 2.83). Values in that range, when seen in few replicates, are hard to tell from nonspecific mating. For each scFv, signals with the empty controls are counted beside the result, with their mean in brackets.

CDR-H1,CDR-H2,CDR-H3,"log10 Kd, replicates",signal with controls
GFTLNRYGNS,VIYSDGRMTFYGDSVK,GRAAGTFDS,ND / ND / ND,0/9
GFTLNFYGIS,VIYSDERRTFYGDSVK,GKAAGTFDS,ND / 4.85 / ND,1/9 (3.98)
GFTLNSYGIS,VIYSDTRRTFYGDSVE,GRAAGRFDS,ND / ND / ND,0/9
GFTLNSYGIS,DIYSDGIRTFYGDSVK,GRAAGTFDS,ND / ND / ND,3/9 (4.32)
GFTLNSYGIS,HIYSDGRRTFFGDSVK,GRAIGTFDS,4.31 / ND / 4.65,2/9 (3.84)
GFTLNSYGIS,VIKSDGRRTFYGDSVG,GRAAGLFDS,5.88 / ND / ND,0/9
GFTLNSYGIS,VIYSGGDETFYGDSVK,GRAAGTFDS,ND / ND / ND,0/9
GFTGESYGIS,VIYCDGRRTFYGDSVK,GRAAGTFDS,ND / ND / 3.01,1/9 (4.36)
GFTLNSYGID,VSYSDGRRTFYGDSVK,GRAAGRFDS,6.38 / ND / 4.02,2/9 (3.87)
GFTLNRAGIS,VIYSDGRRTFYGDSVK,GRAAGTFWS,ND / ND / ND,0/9
GFTLNSYAIS,VIYSDGRRTFYHDSVK,GRSAGTFDS,3.48 / ND / ND,1/9 (3.38)
GFTLNRYGIS,VIYSDGRRTFNGDSVK,GRAAGTVDS,ND / 5.23 / 4.44,2/9 (3.75)
FFTLNSYGIS,VIYSDGRRTFYGDSVK,GRAAGTFDS,2.58 / 2.37 / 2.40,1/9 (3.75)
GFTLNSYGIS,VIYQDGRRTFYGDSVS,HRAAGTFDS,ND / ND / ND,1/9 (3.77)
GFGLNSYGVS,VIYSDGRQTFYGDSVK,GRAAGTFDS,3.34 / 2.41 / 2.72,1/9 (4.01)
YFTLNSYGIQ,VIYSDGRETFYGDSVK,GRAAGTFDS,ND / ND / 5.00,1/9 (3.57)
GFTLPSYGIF,HIYSDGRRTFYGDSVK,GRAAGTFDS,ND / 4.27 / ND,3/9 (4.33)
GFTWNSYGIS,VIYSDGRRTFYGDSYK,GRAAGTGDS,ND / ND / ND,3/9 (4.04)
GFTLNQLGIS,VIHSDGRRTFYGDSVK,GRAAGTFDS,ND / 3.27 / 2.70,4/9 (4.54)
GFTLNSYGIS,VILSDGRRTFYGDAVK,GRAAWTFDS,ND / 4.51 / ND,1/9 (4.42)
PFTLNSYGIS,QIYSDGRRTFYGDSVK,GRAAGTFDS,ND / ND / ND,1/9 (4.10)
GFTLNSYGIS,SIYSDGRRTFYGDSVK,LRAANTFDS,3.34 / ND / ND,3/9 (4.72)
GFTLISYGIS,VIYSDGRRTFYGDSVK,GRAAGTVDV,2.19 / 2.36 / 2.68,0/9
GFTLNSYGIS,VIHSDGRRTFYWDSVK,GRAAGTFLS,5.41 / 3.35 / ND,0/9
GFTLNSYGIS,VIYWDGRRTFYGDLVK,GRAAGTHDS,ND / ND / ND,0/9
GFTLNSYGIS,FIYSDGRRTFYGDHAK,GRAAGTFDS,3.61 / ND / ND,1/9 (3.29)
GFTLNSYGIS,VIYSDGRRTYYGDSVK,GGAKGTFDS,ND / ND / ND,0/9
GFTLWSYGIS,VQYSDGRRTFYGDSVK,GREAGTFDS,2.59 / 2.50 / 2.55,3/9 (3.34)
GFTLNSYPIS,NIYSDGRRTFYGDSVK,GRPAGTFDS,6.08 / 3.62 / ND,4/9 (4.01)
GFTLNSYGIS,VITSDGGRTFYGDSVK,GRAAGTFDS,ND / ND / ND,0/9

The 4 strongest on average among those seen in every replicate, once more:

{"CDR-H1": "GFTLISYGIS", "CDR-H2": "VIYSDGRRTFYGDSVK", "CDR-H3": "GRAAGTVDV", "log10 Kd, replicates": "2.19 / 2.36 / 2.68", "signal with controls": "0/9"}
{"CDR-H1": "FFTLNSYGIS", "CDR-H2": "VIYSDGRRTFYGDSVK", "CDR-H3": "GRAAGTFDS", "log10 Kd, replicates": "2.58 / 2.37 / 2.40", "signal with controls": "1/9 (3.75)"}
{"CDR-H1": "GFTLWSYGIS", "CDR-H2": "VQYSDGRRTFYGDSVK", "CDR-H3": "GREAGTFDS", "log10 Kd, replicates": "2.59 / 2.50 / 2.55", "signal with controls": "3/9 (3.34)"}
{"CDR-H1": "GFGLNSYGVS", "CDR-H2": "VIYSDGRQTFYGDSVK", "CDR-H3": "GRAAGTFDS", "log10 Kd, replicates": "3.34 / 2.41 / 2.72", "signal with controls": "1/9 (4.01)"}

Data: MIT Lincoln Laboratory AlphaSeq set, Engelhart et al. 2022, doi:10.1038/s41597-022-01779-4, as distributed in FLAb.